Results reported in article PMC4525138.

Biological target: PLCβ2 (2–803 AA) (UniProt Q00722)

- PLC activity in the cell-free system (release of IP3 from DOPE: PtdIns(4,5)P2/[3H]-PtdIns(4,5)P2 vesicles, 300 nM free Ca2+, 30 °C, 45 min) with GG-Rac2 and GTPγS, against GG-Rac2 and GDP: 3 fold
Substance: geranylgeranylated Rac2 (GG-Rac2) (from UniProt P15153 1-192) (natural protein)
